Laboratory results published in patent US9220775B2, “Binding molecules specific for HER3 and uses thereof” (Medlmmune LLC, priority 2011, dated 2015).

What was measured:
BT-474 and SkBR3 = test: PBMC-enabled ADCC assay; type: cell-based, human; details: data not shown
Method: ADCC is one recognized way through which a monoclonal antibody can confer its anti-tumor efficacy in vivo. […] 2C2-YTE was tested in CDC assays using human serum as a source of complement.

MCF-7 xenograft tumors = test: Orthotopic human MCF-7 breast cancer xenograft model; type: in vivo, mouse; details: antibodies 10 mg/kg, paclitaxel 10 mg/kg i.v. every second day for ten days
Method: Human MCF-7 breast cancer cells were maintained at 37° C. in a 5% CO2 incubator in Optimem medium containing glutamax, 2.4/L sodium bicarbonate, Hepes and 5% fetal bovine serum. Orthotopic xenografts were established by injecting 5×10^6 cells per mouse (suspended in 50% matrigel) into the mammary fat pad on the right flank of 4 to 6-week-old athymic nu/nu mice. Estrogen pellets (0.36 mg) were placed under the skin of the left flank 1-2 days before cell injection. Tumors were allowed to grow up to 200 mm^3 before randomization for efficacy studies. 2C2, 2C2-YTE and trastuzumab monoclonal antibodies were administered intraperitoneally. […] Paclitaxel was administered intravenously at 10 mg per kilogram body weight. Caliper measurements were used to calculate tumor volumes using the formula: tumor volume=π÷6(length×width×width) • for tumors grown in mice.

[1] = tested on: MDA-MB-361 xenograft tumors; test: Orthotopic human MDA-MB-361 breast cancer xenograft model; type: in vivo, mouse; details: 2C2-YTE 30 mg/kg, trastuzumab and rhuMAb 2C4 10 mg/kg, lapatinib 100 mg/kg twice daily
Method: Orthotopic xenografts were established by injecting 5×10^6 cells per mouse (suspended in 50% matrigel) into the mammary fat pad on the right flank of 4 to 6-week-old athymic nu/nu mice. Estrogen pellets (0.36 mg) were placed under the skin of the left flank 1-2 days before cell injection. […] Lapatinib was administered by oral gavaging at 100 mg per kilogram body weight. Caliper measurements were used to calculate tumor volumes using the formula: tumor volume=π÷6(length×width×width) • for tumors grown in mice.

[2] = tested on: HER3, pHER3 and pAKT in SW620, SW480, Colo205, LOVO, HCT15 and Caco-2 cells; test: HRG ligand-dependent signaling in CRC tumor cell lines (Western blot); type: cell-based, human; details: antibodies 10 μg/mL, gefitinib 5 μM, HRG 50 ng/mL
Method: In the presence of the HER3 ligand heregulin (HRG), HER3 heterodimerizes with EGFR or HER2, which leads to phosphorylation of HER3 and transmission of an oncogenic signal via phosphoinositide 3 kinase (PI3K) and protein kinase B (PKB), also known as AKT. A collection of CRC models were characterized to determine which receptor tyrosine kinase, EGFR or HER2, is the major driver of signaling through HER3. […] Briefly, cells were seeded into 24-well plates at a density of 1.5×10^5 cells per well. […] After 5-6 hours of incubation at 37° C., HRG was added at 50 ng/mL into one set of cells for 15 minutes at 37° C. All cells were then washed with cold PBS and lysed by the addition of 60 μL of 2×SDS (sodium dodecyl sulfate) sample buffer (Invitrogen). Lysates were transferred to 1.5 mL tubes and boiled for 5 minutes followed by chilling on ice for 2 minutes. Equal volumes (20 μL) of protein samples were resolved in NuPAGE Novex Bis-Tris gels (Invitrogen) before transfer to polyvinylidene fluoride (PVDF) membranes (Invitrogen). […] After washing, protein bands were detected on X-ray film by using SuperSignal West Pico Chemiluminescent Substrate (Pierce/Thermo Scientific).

[3] = tested on: Detroit562 xenograft tumors; test: Subcutaneous human Detroit562 head and neck xenograft model; type: in vivo, mouse; details: 10 mg/kg twice per week
Source text: (§1) Xenografts were established by subcutaneously injecting 5×10^6 cells per mouse into the right flanks of 4- to 6-week-old athymic nu/nu mice. Tumors were allowed to grow up to 200 mm^3 before randomization for efficacy studies. […] Caliper measurements were used to calculate tumor volumes using the formula: tumor volume=π÷6(length×width×width) • for tumors grown in mice.

HT-29 xenograft tumors = test: Subcutaneous human HT-29 CRC xenograft model; type: in vivo, mouse; details: 2C2 and 2C2-YTE 30 mg/kg, cetuximab 10 mg/kg
Source text: as §1

HCT-116 xenograft tumors = test: Subcutaneous human HCT-116 CRC xenograft model; type: in vivo, mouse; details: 10 mg/kg twice per week
Source text: as §1

LOVO xenograft tumors = test: Subcutaneous human LOVO CRC xenograft model; type: in vivo, mouse; details: all at 10 mg/kg
Method: as §1, with “Human LOVO colorectal carcinoma cells (ATCC No. CCL-229) were maintained at 37° C. in a 5% CO2 incubator in HAM'S F12K medium containing 4.5 g/L glucose, L-glutamine, sodium pyruvate and 10% fetal bovine serum. Xenografts” for “Xenografts”

| Substance | ADCC effect (BT-474 and SkBR3) | Anti-tumor efficacy (MCF-7 xenograft tumors) | Anti-tumor efficacy [1] | HRG ligand-dependent signaling (HER3, pHER3, pAKT) [2] | Anti-tumor efficacy [3] | Anti-tumor efficacy (HT-29 xenograft tumors) | Anti-tumor efficacy (HCT-116 xenograft tumors) | Anti-tumor efficacy (LOVO xenograft tumors) |
| --- | --- | --- | --- | --- | --- | --- | --- | --- |
| trastuzumab | significant tumor-killing effects | did not demonstrate efficacy | showed anti-tumor efficacy | – | – | – | – | – |
| cetuximab [reference compound] | – | – | – | no effect | caused tumor growth inhibition | no measurable anti-tumor activity | no efficacy | comparable efficacy |
